Measurements taken from BindingDB's records for patent US10231967 (AstraZeneca, 2019).

Amino acid sequences for entries named in this document (tags omitted).
UniProt P05067, whole entry: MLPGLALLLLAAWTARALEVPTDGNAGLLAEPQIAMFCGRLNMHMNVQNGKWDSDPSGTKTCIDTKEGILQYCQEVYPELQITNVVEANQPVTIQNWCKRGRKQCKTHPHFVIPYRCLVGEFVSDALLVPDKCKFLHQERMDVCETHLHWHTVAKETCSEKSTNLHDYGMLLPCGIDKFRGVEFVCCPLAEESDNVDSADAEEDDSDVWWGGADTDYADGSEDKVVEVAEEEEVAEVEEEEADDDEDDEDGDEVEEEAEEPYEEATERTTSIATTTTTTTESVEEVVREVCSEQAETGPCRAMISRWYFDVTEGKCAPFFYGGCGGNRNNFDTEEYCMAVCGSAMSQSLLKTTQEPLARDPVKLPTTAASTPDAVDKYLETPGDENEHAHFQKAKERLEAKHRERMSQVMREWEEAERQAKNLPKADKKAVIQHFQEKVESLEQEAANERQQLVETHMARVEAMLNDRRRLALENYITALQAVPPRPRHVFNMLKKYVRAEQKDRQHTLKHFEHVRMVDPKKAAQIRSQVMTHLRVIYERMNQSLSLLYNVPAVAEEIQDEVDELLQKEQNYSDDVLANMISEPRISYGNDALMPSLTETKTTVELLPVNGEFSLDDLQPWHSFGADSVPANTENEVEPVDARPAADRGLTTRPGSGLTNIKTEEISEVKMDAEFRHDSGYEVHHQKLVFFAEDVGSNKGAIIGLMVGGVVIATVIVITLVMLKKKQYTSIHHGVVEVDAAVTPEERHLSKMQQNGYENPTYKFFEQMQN

Molecular target: Amyloid-beta precursor protein (Homo sapiens, UniProt P05067)
Assay: sAPPbeta Release Assay
Description: Thaw cells and seed at a conc. of around 10000 cells/well in DMEM/F-12 with Glutamax, 10% FCS and 1% non-essential amino acids to a 384-well tissue culture treated plate, 100 μL cell susp/well. […] The cell medium was removed, followed by addition of 30 μL compound diluted in DMEM/F-12 with Glutamax, 10% FCS, 1% non-essential amino acids and 1% PeSt to a final conc. of 1% DMSO. The compounds were incubated with the cells for 17 h (overnight) at 37° C., 5% CO2. Meso Scale Discovery (MSD) plates were used for the detection of sAPPβ release. MSD sAPPβ plates were blocked in 1% BSA in Tris wash buffer (40 μL/well) for 1 h on shake at r.t. and washed 1 time in Tris wash buffer (40 μL/well). 20 μL of medium was transferred to the pre-blocked and washed MSD sAPPβ microplates, and the cell plates were further used in an ATP assay to measure cytotoxicity. The MSD plates were incubated with shaking at r.t. for 2 h and the media discarded. 10 μL detection antibody was added (1 nM) per well followed by incubation with shaking at r.t. for 2 h and then discarded. 40 μL Read Buffer was added per well and the plates were read in a SECTOR Imager.

Compound	IC50 [nM]
CO[C@H]1CC[C@]2(CC1)Cc1ccc(-c3cc(Cl)cc(C#N)c3)cc1C21N=C(C)C(N)=N1 (some centres not stated) [US10231967, Example 125]	0.26
CO[C@H]1CC[C@]2(CC1)Cc1ccc(-c3cncc(Cl)c3)cc1C21N=C(C)C(N)=N1 (some centres not stated) [US10231967, Example 119]	0.57
